# From patent US20220054617A1, “SUBUNIT VACCINE CONSTRUCTS FOR FLAVIVIRUSES” (priority 2018, published 2022)
# What was measured:
# [1] = equivalent doses; reporter mouse model
# [2] = site of injection and draining lymph node
substance,measurement,setting,value
covalent conjugate of an imidazoquinoline TLR7/TLR8 dual agonist [5-(3-(aminomethyl)benzyl)-3-pentylquinolin-2-amine] with hyaluronic acid [EY-4-143],systemic exposure relative to the unconjugated imidazoquinolines,[1],very small
same,release of the TLR7/8 agonist (depot effect),[2],"low-level, but sustained release"
